Screening data as filed in PubChem BioAssay.
PDI turbidity = inhibitors of human PDI, primary screen, biochemical, turbidity, single point, plate reader; Protein disulfide-isomerase (Homo sapiens), P07237; inhibition, % at 10 µM; 350,000 compounds, 0.052% hits; PDI insulin aggregation turbidity, A650, 90 min;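 active = mean inhibition across replicates of 30% or more, whatever share of single replicates reach that level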
UUG fidelity = alters start codon recognition fidelity in yeast | S. cerevisiae UUG-firefly luciferase reporter, luminescence/redox ratio | activity score, % at 18.7 µM | hit rate 0.13% among 350,000 | AID 602363;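 active means replicate mean at a twofold rise or more, about +100% in these data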;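 further: firefly luciferase made from a UUG start codon reports start codon fidelity; reporter light over untreated wells divided by growth signal over untreated wells; some hits fall short of that in this replicate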
NR1D1 modulator = modulators of Rev-erb alpha DNA binding, primary screen, biochemical, FITC-DNA, fluorescence polarization, uHTS. activity, % at 10 µM. 370,000 compounds, 0.79% hits. Rev-erbα–FITC-DNA binding, 90 min. AID 1259318, 2017. Nuclear receptor subfamily 1 group D member 1 (Homo sapiens), P20393;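 active = activity above about 14%, limit read from the data; passing the limit was not always enough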;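 also: 0% = DMSO wells with 35 nM protein and 100% = DMSO wells with 750 nM protein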
GSIS activator = GLuc luminescence reporter in INS-1E cells, primary screen for activators of glucose-dependent secretion of insulin; INS-1E GLuc reporter insulin secretion, 2-3 h; activation, % at 16.6 µM; 370,000 compounds, 0.61% hits; AID 743287, 2014;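 active = lowest replicate activation of at least 40%, so every replicate reaches that level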;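 also: 0% = median of neutral control wells and 100% = median of IBMX positive control wells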
ERp5 inh = inhibitors of ERp5-driven insulin aggregation, primary screen, biochemical, turbidity, absorbance 650 nm, single point. Protein disulfide-isomerase A6 (Homo sapiens), Q15084. 90 min. inhibition, % at 9.99 µM. 350,000 compounds, 0.05% hits. AID 651711, 2012;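 active = mean replicate inhibition above about 25%, with every replicate also reaching it, limit read from the data, passing the limit was not always enough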
SMARCA2 act = SMARCA2 (BRM) function activators, primary screen, cell-based, luminescence, high throughput. MG213 cells, MMTV-luciferase reporter, dexamethasone, overnight. 370,000 compounds, 1% hits. activation, % at 9.1 µM; in the data active = activation above about 7.8%;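 also: 0% = vehicle wells and 100% = reference activator wells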
Rev-erbA confirm = modulators of Rev-erb alpha DNA binding, confirmation, biochemical, FITC-DNA, fluorescence polarization, single point; AID 1259319, 2017; activation, % at 25 µM; shares compounds with NR1D1 modulator; 90 min; 3,000 compounds, 61% hits;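 active = activation at or above a set limit, or at least 3 SD above the negative control mean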;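 also: 0% = 35 nM protein with DMSO and 100% = 750 nM protein high control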
RORg DNA counter = modulation of RORgamma DNA binding, dose response, counter-screen for Rev-erb alpha modulator project, biochemical, fluorescence polarization, FITC-DNA | IC50, µM | 910 compounds, 8% hits | AID 1259320, 2017 | shares compounds with NR1D1 modulator | purified RORgamma protein-FITC-DNA binding;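 active = Compounds whose fitted half-maximal concentration for disrupting protein-DNA binding is below 10 micromolar; the record names Rev-erb in its text, so the target is in doubt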
Numbers without * were called inactive; i = inactive; / = not tested or not shown. A selection: hits, their analogues and other compounds. The true share with any hit is near 2.1%.

SMILES	PDI turbidity	UUG fidelity	NR1D1 modulator	GSIS activator	ERp5 inh	SMARCA2 act	Rev-erbA confirm	RORg DNA counter
COc1cccc(-c2ccc(CC[C@H]3O[C@H]4CC[C@@H](CO)O[C@H]4C[C@@H]3NC(=O)c3cnccn3)cc2)c1	/	/	/	/	1.0	/	/	/
CCc1cc2cc(C)cc(C)c2nc1SCC(=O)N1CCCC1	1.5	-18.7	58.1*	/	/	-2.9	41.4*	>40
CCc1cc2cc(C)cc(C)c2nc1SCC(=O)Nc1cc(C)on1	-4.0	/	9.7	-0.4	4.0	0.0	/	/
CCCCNc1nc2c(S(=O)(=O)c3ccccc3)nnn2c2ccccc12	/	-22.1	15.7	/	10.2	1.9	/	/
Cc1cc(C)cc(Nc2nc3c(S(=O)(=O)c4ccccc4)nnn3c3ccccc23)c1	1.3	/	52.3*	/	-44.1	-2.8	1.6	/
Cc1cccc(Nc2nc3c(S(=O)(=O)c4ccccc4)nnn3c3ccccc23)c1	6.1	-13.4	39.4*	9.3	-9.3	-3.0	7.9	/
CC(C)c1ccc(S(=O)(=O)c2nnn3c2nc(N2CCCCC2)c2ccccc23)cc1	-7.3	/	29.9*	8.5	/	0.6	28.5*	/
O=C(NC1CCCC1)N1CCCCN2[C@H](CO)[C@H](c3ccc(-c4cncnc4)cc3)[C@H]2C1	/	-3.5	/	13.4	3.1	/	/	/
O=C(Cc1ccccc1)N1CC[C@H]2[C@H](CO)Nc3ccc(-c4ccccc4)cc3[C@H]21	/	-16.5	/	-0.9	0.4	/	/	/
COc1ccc(-c2cc(C3CC3)nc(SCC(=O)c3cccs3)c2C#N)cc1	2.2	-14.5	87.8*	-0.5	/	-2.7	109.9*	>40
COc1ccc(CNC(=O)C[C@H]2C[C@@H]3c4cc(NC(=O)CC5CC5)ccc4O[C@@H]3[C@H](CO)O2)cc1	/	-7.9	/	-2.3	/	/	/	/
COc1ccc(CNC(=O)CS(=O)(=O)Cc2nc(-c3cccc(OC)c3)oc2C)cc1	-8.9	-22.4	24.7*	8.2	-2.3	-0.6	22.4*	/
CCOc1ccc(CNC(=O)CS(=O)(=O)Cc2nc(-c3ccc(OC)cc3)oc2C)cc1	/	-8.6	26.3*	-12.2	2.8	-0.5	7.7	/
CCOC(=O)Cc1c(C)nc2c(-c3cccc(Br)c3)cnn2c1C	-16.4	/	3.9	/	1.7	-2.7	/	/
CC(=O)c1cnc2c(-c3cccc(Br)c3)cnn2c1C	2.3	-17.5	30.5*	1.7	/	3.5	33.9*	>40
O=c1[nH]c(-c2ccc3c(c2)OCO3)nc2c1sc(=S)n2-c1ccccc1	-4.6	/	76.0*	-2.4	3.1	-1.1	17.9	/
COCCNC(=O)C[C@H]1C[C@H]2c3cc(NC(=O)Nc4ccc(F)cc4)ccc3O[C@H]2[C@H](CO)O1	/	-13.7	/	3.7	/	/	/	/
CC(=O)Nc1ccc(C=NNc2ccc([N+](=O)[O-])cc2S(=O)(=O)Nc2ccccc2C(=O)O)cc1	18.7	-10.5	-0.4	-8.8	-0.8	-3.6	/	/
CN(CCO)c1ccc(C=NNc2ccc([N+](=O)[O-])cc2S(=O)(=O)Nc2ccccc2C(=O)O)cc1	16.6	5.2	21.3*	-13.5	-1.7	-0.8	3.5	/
O=C(Nc1cc(F)ccc1F)N[C@@H]1CC[C@@H](CCn2cc(C3CC3)nn2)O[C@H]1CO	/	/	/	7.1	-2.5	/	/	/
CCOC(=O)c1cc(-c2ccc3c(c2)OCO3)nc2onc(C)c12	-6.7	-10.5	33.2*	/	/	-2.1	8.7	/
COc1ccc(N/C=C(\C=C\C#N)S(=O)(=O)c2ccccc2)cc1	2.0	-15.1	22.0*	-9.6	-0.6	-2.4	2.6	/
CCS(=O)(=O)Nc1ccc2c(c1)C(=O)N(C)C[C@H](OC)[C@H](C)CN(C(C)=O)[C@H](C)CO2	/	-1.3	/	3.8	-0.1	/	/	/
O=C(c1cccc(F)c1)n1ccc2ccc(-c3ccc4ccn(Cc5ccccc5)c4c3)cc21	/	/	8.1	/	/	-1.2	/	/
COC(=O)c1cccc(Cn2ccc3ccc(-c4ccc5ccn(C(=O)c6cccc(OC)c6)c5c4)cc32)c1	/	/	38.6*	/	/	-0.6	53.9*	i
COc1ccccc1C(=O)n1ccc2ccc(-c3ccc4ccn(Cc5ccccc5)c4c3)cc21	/	/	5.1	/	/	-2.9	/	/
O=C(c1ccccc1)n1ccc2ccc(-c3ccc4ccn(Cc5ccccc5)c4c3)cc21	/	/	12.3	/	/	-2.5	/	/
COC(=O)c1cccc(Cn2ccc3ccc(-c4ccc5ccn(C(=O)c6ccc(C)cc6)c5c4)cc32)c1	/	/	45.8*	/	/	-1.7	63.9*	>40
CCCCOc1ccc(C(=O)n2ccc3ccc(-c4ccc5ccn(Cc6ccccc6)c5c4)cc32)cc1	/	/	39.6*	/	/	-2.0	44.6*	>40
COC(=O)c1cccc(Cn2ccc3ccc(-c4ccc5ccn(C(=O)c6ccccc6OC)c5c4)cc32)c1	/	/	34.1*	/	/	-0.3	58.0*	i

Filtered by structure, the entries above with bromine (2)
SMILES	PDI turbidity	UUG fidelity	NR1D1 modulator	GSIS activator	ERp5 inh	SMARCA2 act	Rev-erbA confirm	RORg DNA counter
CCOC(=O)Cc1c(C)nc2c(-c3cccc(Br)c3)cnn2c1C	-16.4	/	3.9	/	1.7	-2.7	/	/
CC(=O)c1cnc2c(-c3cccc(Br)c3)cnn2c1C	2.3	-17.5	30.5*	1.7	/	3.5	33.9*	>40

Next entries.
SMILES	PDI turbidity	UUG fidelity	NR1D1 modulator	GSIS activator	ERp5 inh	SMARCA2 act	Rev-erbA confirm	RORg DNA counter
Cc1cc(C(=O)Nc2cccc3c2O[C@H](CN(C)CC2CC2)[C@H](C)CN([C@H](C)CO)C3=O)n(C)n1	/	-20.3	/	0.8	0.3	/	/	/
Fc1cccc(Cn2ccc3ccc(-c4ccc5ccn(Cc6cccc(F)c6)c5c4)cc32)c1	/	/	2.8	/	/	-1.5	/	/
COC(=O)c1cccc(Cn2ccc3ccc(-c4ccc5ccn(Cc6cccc(C(=O)OC)c6)c5c4)cc32)c1	/	/	51.1*	/	/	-2.2	0.7	/
COc1cccc(CNC(=O)C[C@H]2CC[C@H]3[C@@H](COc4ccc(NC(=O)c5cccs5)cc4C(=O)N3C)O2)c1	/	/	59.7*	-4.6	-3.7	-3.2	43.0*	>40
C[C@@H](NC(=O)C[C@H]1CC[C@H]2[C@@H](COc3ccc(NC(=O)Nc4ccccc4)cc3C(=O)N2C)O1)c1ccccc1	/	/	26.2*	/	/	-5.7	20.3*	/
CCNC(=O)Nc1ccc2c(c1)C(=O)N(C)[C@H]1CC[C@H](CC(=O)N[C@H](C)c3ccccc3)O[C@@H]1CO2	/	/	80.0*	/	/	-2.7	55.2*	>40
CN1C(=O)c2cc(NS(=O)(=O)c3ccc(F)cc3)ccc2OC[C@H]2O[C@@H](CC(=O)NCC(F)(F)F)CC[C@@H]21	/	/	130.4*	3.1	/	-1.5	79.5*	7.22*
CNC[C@H]1Oc2ccc(NC(=O)Nc3ccccc3)cc2CC(=O)N([C@@H](C)CO)C[C@H]1C	/	-2.9	/	20.1	-1.4	/	/	/
C[C@H](CO)N1C[C@H](C)[C@H](CN(C)C(=O)Cc2ccccc2)Oc2ncc(-c3ccccc3)cc2C1=O	/	-9.6	/	2.7	6.6	/	/	/
CNC[C@H]1OCCCC[C@@H](C)Oc2ccc(NS(=O)(=O)c3ccc(F)cc3)cc2C(=O)N([C@@H](C)CO)C[C@H]1C	/	/	/	-10.8	/	/	/	/

Five compounds from above, arranged by the value under SMARCA2 act, falling.
SMILES,PDI turbidity,UUG fidelity,NR1D1 modulator,GSIS activator,ERp5 inh,SMARCA2 act,Rev-erbA confirm
Fc1cccc(Cn2ccc3ccc(-c4ccc5ccn(Cc6cccc(F)c6)c5c4)cc32)c1,/,/,2.8,/,/,-1.5,/
COC(=O)c1cccc(Cn2ccc3ccc(-c4ccc5ccn(Cc6cccc(C(=O)OC)c6)c5c4)cc32)c1,/,/,51.1*,/,/,-2.2,0.7
CCNC(=O)Nc1ccc2c(c1)C(=O)N(C)[C@H]1CC[C@H](CC(=O)N[C@H](C)c3ccccc3)O[C@@H]1CO2,/,/,80.0*,/,/,-2.7,55.2*
COc1cccc(CNC(=O)C[C@H]2CC[C@H]3[C@@H](COc4ccc(NC(=O)c5cccs5)cc4C(=O)N3C)O2)c1,/,/,59.7*,-4.6,-3.7,-3.2,43.0*
C[C@@H](NC(=O)C[C@H]1CC[C@H]2[C@@H](COc3ccc(NC(=O)Nc4ccccc4)cc3C(=O)N2C)O1)c1ccccc1,/,/,26.2*,/,/,-5.7,20.3*
